The text below walks through data of US12187709B2 (Genentech, Inc., priority 2021, dated 2025).

Protein sequences, listed by entry. Tags and fused reporters are not part of them. Residues count along the entry.
UniProt Q13191, 40-426 limits assumed: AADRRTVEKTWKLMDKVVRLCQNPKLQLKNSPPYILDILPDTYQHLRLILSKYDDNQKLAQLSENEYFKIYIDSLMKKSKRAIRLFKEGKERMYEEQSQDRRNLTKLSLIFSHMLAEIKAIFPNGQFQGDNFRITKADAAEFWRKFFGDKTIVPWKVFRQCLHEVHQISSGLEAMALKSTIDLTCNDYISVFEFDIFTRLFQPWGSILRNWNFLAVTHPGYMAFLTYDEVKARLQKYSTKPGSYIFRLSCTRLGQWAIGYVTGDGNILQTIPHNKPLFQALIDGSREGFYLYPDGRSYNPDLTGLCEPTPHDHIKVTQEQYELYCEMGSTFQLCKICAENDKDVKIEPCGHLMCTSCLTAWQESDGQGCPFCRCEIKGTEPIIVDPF
UniProt P22681, 47-435 limits assumed: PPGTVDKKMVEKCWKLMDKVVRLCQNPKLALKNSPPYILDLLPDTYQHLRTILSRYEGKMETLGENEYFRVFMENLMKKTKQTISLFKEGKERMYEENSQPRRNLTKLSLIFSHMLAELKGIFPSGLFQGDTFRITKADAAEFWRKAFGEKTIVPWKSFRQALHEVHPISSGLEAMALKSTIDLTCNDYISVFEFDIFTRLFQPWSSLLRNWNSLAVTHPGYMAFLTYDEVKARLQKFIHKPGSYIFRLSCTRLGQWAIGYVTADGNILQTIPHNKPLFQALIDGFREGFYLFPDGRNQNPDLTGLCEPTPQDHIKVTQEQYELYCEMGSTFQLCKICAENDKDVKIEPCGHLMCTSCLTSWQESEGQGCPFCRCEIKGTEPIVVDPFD

In one assay the target is Cbl-b (Homo sapiens (Human), UniProt Q13191). Nature of the assay: Cbl-b LCK Ub TR-FRET assay (Cbl-b Lck HTRF). Conditions: for fold-selectivity (Cbl-b over C-cbl): ratio C-cbl Lck HTRF IC50 / Cbl-b Lck HTRF IC50.
A further assay addresses c-Cbl (Homo sapiens (Human), UniProt P22681). Nature of the assay: C-Cbl LCK Ub TR-FRET assay (C-cbl Lck HTRF). The conditions noted are these: read-out: C-cbl Lck HTRF IC50.
The target in assay [1] is Human Cbl-b (residues 40-426) (Homo sapiens (Human), UniProt Q13191). Nature of the assay: Cbl-b SPR assay. Conditions: C-cbl SPR Kd vs Cbl-b SPR Kd.
For a further assay, the target named is c-Cbl (residues 47-435) (Homo sapiens (Human), UniProt P22681). Nature of the assay: c-Cbl SPR assay. The conditions noted are these: read-out: C-cbl SPR Kd, 20° C.

Molecules are shown by their SMILES. pIC50, pKd: −log10 of the molar value.

Consider `Cn1cnnc1C(c1cccc(N2Cc3c(cc(CNC4(C)CCC4)cc3C(F)(F)F)C2=O)c1)C1CC(OC(F)(F)F)C1` (single isomer, unassigned), for which the fold-selectivity (Cbl-b over C-cbl) on Cbl-b is 0.8. Besides, the pIC50 at c-Cbl is 8.32. Besides, the Fold of selectivity in assay [1] came out at 3.5 ×. Besides, on c-Cbl (residues 47-435), the pKd is 8.34.
With `Cn1cnnc1[C@H](c1cc(F)cc(N2Cc3c(cc(CNC4(C)CCC4)cc3C(F)(F)F)C2=O)c1)C1COC1` (single isomer, unassigned), at Cbl-b, the fold-selectivity (Cbl-b over C-cbl) amounted to 2.9. In addition, the pIC50 was 5.57 on Cbl-b (read-out: Cbl-b Lck HTRF IC50, Cbl-b LCK Ub TR-FRET) and 5.08 on c-Cbl.
